# Results as given in patent publication US20230312564A1, “AROMATIC RING-LACTAM COMPOUND, PREPARATION METHOD THEREFOR AND USE THEREOF” (SHANGHAI RINGENE BIOPHARMA CO., LTD., priority 2020, published 2023).
# Molecular target: T1, ERK1/2 kinase
# T1 construct: fused on or other part: Carna's ERK products carry a GST tag by vendor knowledge
# Experiment: ERK1/2 kinase (Carna) inhibitory activity, Caliper mobility shift
# Format: biochemical
# Conditions: numeric values; read-out: ERK½ IC50
# Procedure: (1) Preparation of 1×Kinase buffer; (2) preparation of compound concentration gradient: the initial test concentration of the tested compound was 10 μM, which was 3-fold diluted to 10 concentrations, and a duplicate test was conducted, and then the tested compound was diluted in a 96 well plate to a 100-fold final concentration of 10 different concentrations of solution. […] Log (inhibitor) vs. response—Variable slope of the analysis software GraphPad Prism 5 was used to fit the dose-effect curve to obtain the IC50 value of each compound on the enzyme activity.
# 2. […] (A<10 nM, 10 nM≤B<200 nM, C≥200 nM)
compound,measurement,value
"Cc1cccc([C@@H](CO)NC(=O)[C@@H](C)N2Cc3c(F)cc(-c4nc(NC5CCOCC5)ncc4Cl)cc3C2=O)c1 [Comparative compound 4, (R)-2-(6-(5-Chloro-2-((tetrahydro-2H-pyran-4-yl)amino)pyrimidin-4-yl)-4-fluoro-1-oxoisoindolin-2-yl)-N—((S)-2-hydroxy-1-(m-tolyl)ethyl)propanamide, reference compound]",IC50,0.7 nM
